ChEMBL document CHEMBL4622925, “N1-Substituted benzimidazole scaffold for farnesoid X receptor (FXR) agonists accompanying prominent selectivity against vitamin D receptor (VDR)” (Bioorg Med Chem, 2020)
The source made the active and inactive calls.

Amino acid sequences for entries named in this document (tags omitted). A change or cut given only in a name is not applied to a line headed by its entry.
UniProt P10276, whole entry: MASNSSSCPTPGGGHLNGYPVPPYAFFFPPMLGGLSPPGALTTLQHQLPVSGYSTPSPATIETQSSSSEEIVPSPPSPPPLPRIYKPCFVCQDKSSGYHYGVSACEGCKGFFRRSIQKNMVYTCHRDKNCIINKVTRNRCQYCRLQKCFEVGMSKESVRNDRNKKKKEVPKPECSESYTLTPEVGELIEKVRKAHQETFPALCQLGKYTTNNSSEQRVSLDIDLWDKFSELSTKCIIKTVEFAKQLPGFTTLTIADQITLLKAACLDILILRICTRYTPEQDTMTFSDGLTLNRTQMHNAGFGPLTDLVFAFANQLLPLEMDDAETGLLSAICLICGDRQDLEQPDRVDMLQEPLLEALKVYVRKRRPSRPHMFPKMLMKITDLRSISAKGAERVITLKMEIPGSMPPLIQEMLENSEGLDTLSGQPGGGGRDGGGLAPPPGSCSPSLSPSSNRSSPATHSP
UniProt Q13133, whole entry: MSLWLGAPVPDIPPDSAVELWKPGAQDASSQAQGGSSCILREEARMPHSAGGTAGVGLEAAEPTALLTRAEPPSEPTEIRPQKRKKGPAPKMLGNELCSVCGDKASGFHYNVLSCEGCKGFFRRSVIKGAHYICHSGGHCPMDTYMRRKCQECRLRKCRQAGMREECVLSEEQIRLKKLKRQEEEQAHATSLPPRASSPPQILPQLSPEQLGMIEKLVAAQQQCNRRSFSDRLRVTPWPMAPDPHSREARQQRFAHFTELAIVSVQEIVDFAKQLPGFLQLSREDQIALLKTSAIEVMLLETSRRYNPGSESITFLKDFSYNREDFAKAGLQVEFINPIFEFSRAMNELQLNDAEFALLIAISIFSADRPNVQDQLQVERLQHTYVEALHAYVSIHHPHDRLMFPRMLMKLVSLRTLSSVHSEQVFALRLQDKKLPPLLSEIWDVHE
UniProt P55055, whole entry: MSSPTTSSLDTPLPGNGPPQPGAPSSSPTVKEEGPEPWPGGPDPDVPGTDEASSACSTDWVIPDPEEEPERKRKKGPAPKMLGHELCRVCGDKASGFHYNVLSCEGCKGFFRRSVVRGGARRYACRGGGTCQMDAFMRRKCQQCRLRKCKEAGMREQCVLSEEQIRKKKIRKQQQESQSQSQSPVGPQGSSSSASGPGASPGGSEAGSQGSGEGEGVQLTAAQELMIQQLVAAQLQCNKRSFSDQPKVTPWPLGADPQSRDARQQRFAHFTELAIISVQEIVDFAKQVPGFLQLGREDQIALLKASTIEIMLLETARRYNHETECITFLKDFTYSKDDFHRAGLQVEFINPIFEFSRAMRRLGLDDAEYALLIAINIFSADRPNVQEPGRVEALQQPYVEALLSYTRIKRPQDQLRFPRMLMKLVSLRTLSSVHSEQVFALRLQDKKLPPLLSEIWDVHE
UniProt P37231: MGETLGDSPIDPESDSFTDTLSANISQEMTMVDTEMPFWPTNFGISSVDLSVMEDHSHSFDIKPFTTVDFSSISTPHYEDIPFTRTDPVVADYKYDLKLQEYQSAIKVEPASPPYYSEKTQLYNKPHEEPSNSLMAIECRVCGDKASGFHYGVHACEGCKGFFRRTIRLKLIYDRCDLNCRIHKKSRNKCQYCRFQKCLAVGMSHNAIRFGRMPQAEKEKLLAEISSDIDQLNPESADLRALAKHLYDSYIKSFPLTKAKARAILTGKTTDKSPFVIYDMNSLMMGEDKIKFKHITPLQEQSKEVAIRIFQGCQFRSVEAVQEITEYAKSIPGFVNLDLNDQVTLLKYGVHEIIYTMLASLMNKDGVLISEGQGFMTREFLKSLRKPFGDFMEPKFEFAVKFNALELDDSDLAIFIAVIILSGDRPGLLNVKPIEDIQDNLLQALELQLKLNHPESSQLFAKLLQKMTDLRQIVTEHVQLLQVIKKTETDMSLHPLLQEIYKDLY

What was measured:
Type in all cases: cell-based
Conditions in all cases: Huh-7
[1] = molecular target: T1, Retinoic acid receptor RXR-alpha (Homo sapiens) (UniProt P19793); assay: Agonist activity at human RXRalpha transfected in human HuH7 cells assessed as receptor transactivation at 1 uM by luciferase reporter gene assay
T1 sequence (whole entry): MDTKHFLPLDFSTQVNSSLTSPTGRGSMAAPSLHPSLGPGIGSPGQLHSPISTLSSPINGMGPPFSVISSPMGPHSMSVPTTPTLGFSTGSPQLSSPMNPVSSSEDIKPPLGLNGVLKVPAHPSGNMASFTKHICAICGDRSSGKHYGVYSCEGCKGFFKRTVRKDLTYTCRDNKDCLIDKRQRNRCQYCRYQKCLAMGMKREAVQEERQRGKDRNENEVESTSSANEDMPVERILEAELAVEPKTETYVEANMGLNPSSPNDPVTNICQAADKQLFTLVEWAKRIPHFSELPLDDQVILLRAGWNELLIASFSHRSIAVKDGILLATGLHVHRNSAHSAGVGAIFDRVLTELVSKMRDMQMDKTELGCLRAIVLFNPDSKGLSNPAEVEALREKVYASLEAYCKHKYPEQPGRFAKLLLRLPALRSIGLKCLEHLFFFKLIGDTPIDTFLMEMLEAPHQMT

[2] = molecular target: Retinoic acid receptor alpha (Homo sapiens) (UniProt P10276); assay: Agonist activity at human RARalpha transfected in human HuH7 cells assessed as receptor transactivation at 1 uM by luciferase reporter gene assay
[3] = molecular target: T2, G-protein coupled bile acid receptor 1 (Homo sapiens) (UniProt Q8TDU6); assay: Agonist activity at human TGR5 transfected in human HuH7 cells assessed as receptor transactivation at 1 uM by luciferase reporter gene assay
T2 sequence (whole entry): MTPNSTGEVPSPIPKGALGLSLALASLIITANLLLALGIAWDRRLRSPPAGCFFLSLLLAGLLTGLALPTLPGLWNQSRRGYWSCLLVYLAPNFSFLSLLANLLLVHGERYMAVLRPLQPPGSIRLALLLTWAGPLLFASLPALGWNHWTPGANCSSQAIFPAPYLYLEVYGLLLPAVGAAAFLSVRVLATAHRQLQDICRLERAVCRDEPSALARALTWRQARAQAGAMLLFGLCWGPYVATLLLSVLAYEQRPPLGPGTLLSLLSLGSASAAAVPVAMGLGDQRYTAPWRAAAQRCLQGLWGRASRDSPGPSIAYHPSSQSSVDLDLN

[4] = molecular target: Oxysterols receptor LXR-alpha (Homo sapiens) (UniProt Q13133); assay: Agonist activity at human LXRalpha transfected in human HuH7 cells at 1 uM assessed as receptor transactivation by luciferase reporter gene assay
[5] = molecular target: Oxysterols receptor LXR-beta (Homo sapiens) (UniProt P55055); assay: Agonist activity at human LXRbeta transfected in human HuH7 cells assessed as receptor transactivation at 1 uM by luciferase reporter gene assay
[6] = molecular target: T3, Peroxisome proliferator-activated receptor alpha (Homo sapiens) (UniProt Q07869); assay: Agonist activity at human PPARalpha transfected in human HuH7 cells assessed as receptor transactivation at 1 uM by luciferase reporter gene assay
T3 sequence (whole entry): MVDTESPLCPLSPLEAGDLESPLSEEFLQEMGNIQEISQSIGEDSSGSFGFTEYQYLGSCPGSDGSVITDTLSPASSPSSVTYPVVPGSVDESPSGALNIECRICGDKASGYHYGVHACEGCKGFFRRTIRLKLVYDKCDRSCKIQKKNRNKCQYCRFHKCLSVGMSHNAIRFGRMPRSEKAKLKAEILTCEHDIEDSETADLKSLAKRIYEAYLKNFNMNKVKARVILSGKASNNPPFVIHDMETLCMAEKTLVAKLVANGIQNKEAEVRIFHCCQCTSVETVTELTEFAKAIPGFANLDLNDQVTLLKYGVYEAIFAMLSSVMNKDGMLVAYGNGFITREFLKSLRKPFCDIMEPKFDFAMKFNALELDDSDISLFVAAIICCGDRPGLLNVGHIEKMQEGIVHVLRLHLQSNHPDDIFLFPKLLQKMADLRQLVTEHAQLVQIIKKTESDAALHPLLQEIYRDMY

[7] = molecular target: Peroxisome proliferator-activated receptor gamma (Homo sapiens) (UniProt P37231); assay: Agonist activity at human PPARgamma transfected in human HuH7 cells assessed as receptor transactivation at 1 uM by luciferase reporter gene assay
[8] = molecular target: T4, Peroxisome proliferator-activated receptor delta (Homo sapiens) (UniProt Q03181); assay: Agonist activity at human PPARdelta transfected in human HuH7 cells assessed as receptor transactivation at 1 uM by luciferase reporter gene assay
T4 sequence (whole entry): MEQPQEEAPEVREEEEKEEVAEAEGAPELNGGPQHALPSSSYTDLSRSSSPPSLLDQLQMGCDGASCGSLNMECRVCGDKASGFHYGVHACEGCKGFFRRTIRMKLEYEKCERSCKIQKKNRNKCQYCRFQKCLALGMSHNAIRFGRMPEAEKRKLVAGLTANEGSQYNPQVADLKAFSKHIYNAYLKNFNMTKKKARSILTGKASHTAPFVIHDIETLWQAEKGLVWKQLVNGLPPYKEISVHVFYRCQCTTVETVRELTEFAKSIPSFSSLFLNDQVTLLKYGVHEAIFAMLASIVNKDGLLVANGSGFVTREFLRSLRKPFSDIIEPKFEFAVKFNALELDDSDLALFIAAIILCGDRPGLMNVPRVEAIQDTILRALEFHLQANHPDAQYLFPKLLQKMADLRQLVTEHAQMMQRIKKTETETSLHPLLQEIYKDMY

Measured: Activity

CCCC(CCC)n1c(-c2ccc(OCc3c(-c4c(Cl)cccc4Cl)noc3C(C)C)cc2)nc2ccc(C(=O)O)cc21
inactive: all assays above

CCC(CC)n1c(-c2ccc(OCc3c(-c4c(Cl)cccc4Cl)noc3C(C)C)cc2)nc2ccc(C(=O)O)cc21
inactive: all assays above
